Test results taken from ChEMBL document CHEMBL2439973, “Discovery of VU0409106: A negative allosteric modulator of mGlu5 with activity in a mouse model of anxiety” (Bioorg Med Chem Lett, 2013).

Protein sequences, listed by entry. Tags and fused reporters are not part of them.
UniProt P31424, whole entry, looked up: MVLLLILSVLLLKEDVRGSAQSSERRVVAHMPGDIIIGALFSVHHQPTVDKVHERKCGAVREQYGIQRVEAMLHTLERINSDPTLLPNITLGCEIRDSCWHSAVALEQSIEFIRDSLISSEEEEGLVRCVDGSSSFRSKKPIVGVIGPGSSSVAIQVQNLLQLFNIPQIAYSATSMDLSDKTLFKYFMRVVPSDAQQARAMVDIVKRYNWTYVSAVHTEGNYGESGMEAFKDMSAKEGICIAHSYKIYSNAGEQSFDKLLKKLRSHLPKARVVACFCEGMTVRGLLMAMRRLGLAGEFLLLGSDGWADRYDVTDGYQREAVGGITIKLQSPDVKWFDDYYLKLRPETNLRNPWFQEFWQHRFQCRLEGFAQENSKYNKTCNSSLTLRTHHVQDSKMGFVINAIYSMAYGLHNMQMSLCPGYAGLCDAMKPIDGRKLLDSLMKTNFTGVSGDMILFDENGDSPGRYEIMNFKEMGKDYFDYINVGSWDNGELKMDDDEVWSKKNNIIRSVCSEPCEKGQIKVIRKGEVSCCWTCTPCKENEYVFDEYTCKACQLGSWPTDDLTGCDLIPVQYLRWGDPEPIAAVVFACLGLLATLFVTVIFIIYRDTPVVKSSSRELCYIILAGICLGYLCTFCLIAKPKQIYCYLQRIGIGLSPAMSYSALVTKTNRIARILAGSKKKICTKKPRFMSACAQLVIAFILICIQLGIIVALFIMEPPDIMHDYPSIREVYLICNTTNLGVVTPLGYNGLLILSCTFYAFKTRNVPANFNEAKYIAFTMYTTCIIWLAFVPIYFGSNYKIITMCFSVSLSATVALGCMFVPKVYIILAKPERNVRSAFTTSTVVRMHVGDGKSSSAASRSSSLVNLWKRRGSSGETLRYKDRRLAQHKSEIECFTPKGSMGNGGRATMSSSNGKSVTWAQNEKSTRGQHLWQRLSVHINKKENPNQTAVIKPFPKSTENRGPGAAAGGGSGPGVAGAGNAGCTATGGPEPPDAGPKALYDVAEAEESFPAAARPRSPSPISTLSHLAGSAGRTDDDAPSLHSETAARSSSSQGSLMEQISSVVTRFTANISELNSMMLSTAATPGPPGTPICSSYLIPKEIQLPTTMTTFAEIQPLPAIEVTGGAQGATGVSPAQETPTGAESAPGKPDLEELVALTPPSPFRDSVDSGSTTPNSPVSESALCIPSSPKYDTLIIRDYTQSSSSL

The molecules below were run against Metabotropic glutamate receptor 5 (Rattus norvegicus) (UniProt P31424) (assay: Negative allosteric modulation of rat mGlu5 receptor expressed in HEK293A cells assessed as inhibition of glutamate-induced calcium mobilization at 30 uM preincubated for 140 seconds prior to glutamate-stimulation measured after 60 seconds relative to glutamate). Settings: HEK293-A.
Type: functional, cell-based

SMILES	%max
O=C(Nc1ccccn1)c1cccc(Oc2cccnc2)c1	1.6%
O=C(Nc1ccc(Cl)cn1)c1cc(F)cc(Oc2cncnc2)c1	2%
Cc1csc(NC(=O)c2cccc(Oc3cncnc3)c2)n1	1.7%
O=C(Nc1cccc(C(F)(F)F)n1)c1cc(F)cc(Oc2cncnc2)c1	3.7%
Cc1nc(NC(=O)c2cc(Cl)cc(Oc3cncnc3)c2)ccc1F	1.1%
O=C(Nc1cc(Cl)ccn1)c1cc(Cl)cc(Oc2cncnc2)c1	1.2%
O=C(Nc1nc(C(F)F)cs1)c1cc(Cl)cc(Oc2cncnc2)c1	1.2%
Cc1ccnc(NC(=O)c2cc(Cl)cc(Oc3cncnc3)c2)c1	1.7%
O=C(Nc1cccc(C(F)F)n1)c1cc(F)cc(Oc2cncnc2)c1	1.2%
Cc1csc(NC(=O)c2cccc(Oc3cccnc3)c2)n1	1.7%
Cc1cc(Oc2cncnc2)cc(C(=O)Nc2ccc(F)cn2)c1	0.8%
Cc1ccnc(NC(=O)c2cc(F)cc(Oc3cncnc3)c2)c1	1.4%
Cc1cccc(NC(=O)c2cccc(Oc3cccnc3)c2)n1	1.3%
COc1cccc(NC(=O)c2cccc(Oc3cccnc3)c2)n1	3.2%
O=C(Nc1cccc(Oc2cccnc2)c1)c1cccc(Cl)c1	1%
O=C(Nc1ccc(Cl)cn1)c1cc(Cl)cc(Oc2cncnc2)c1	1.3%
O=C(Nc1ccncn1)c1cccc(Oc2cccnc2)c1	49.9%
O=C(Nc1nccs1)c1cc(F)cc(Oc2cncnc2)c1	3.2%
O=C(Nc1ccc(F)c(CF)n1)c1cc(Cl)cc(Oc2cncnc2)c1	1.2%
O=C(Nc1cccc(CF)n1)c1cc(Cl)cc(Oc2cncnc2)c1	1.4%
O=C(Nc1ccccn1)c1cc(Cl)cc(Oc2cncnc2)c1	1.2%

SMILES	%max
O=C(Nc1cccc(C(F)(F)F)n1)c1cc(Cl)cc(Oc2cncnc2)c1	1.5%
O=C(Nc1cccc(Cl)n1)c1cc(F)cc(Oc2cncnc2)c1	1.5%
Cc1cccc(NC(=O)c2cc(Cl)cc(Oc3cncnc3)c2)n1	1.1%
O=C(Nc1cc(C(F)(F)F)ccn1)c1cc(Cl)cc(Oc2cncnc2)c1	2%
O=C(Nc1nc(C(F)(F)F)cs1)c1cc(Cl)cc(Oc2cncnc2)c1	1.2%
Cc1cc(NC(=O)c2cc(Cl)cc(Oc3cncnc3)c2)ncc1F	10.2%
CCc1cccc(NC(=O)c2cccc(Oc3cccnc3)c2)n1	1.9%
O=C(Nc1ncccc1F)c1cc(Cl)cc(Oc2cncnc2)c1	52.6%
O=C(Nc1nc(CF)cs1)c1cc(F)cc(Oc2cncnc2)c1	1.6%
O=C(Nc1ccc(F)cn1)c1cc(F)cc(Oc2cncnc2)c1	1.3%
O=C(Nc1cccc(C(F)F)n1)c1cc(Cl)cc(Oc2cncnc2)c1	1.1%
O=C(Nc1ccc(F)cn1)c1cccc(Oc2cccnc2)c1	6.8%
O=C(Nc1cccc(F)n1)c1cc(F)cc(Oc2cncnc2)c1	1.6%
COc1cccc(NC(=O)c2cc(F)cc(Oc3cncnc3)c2)n1	1.6%
O=C(Nc1ccccn1)c1cc(F)cc(Oc2cncnc2)c1	1.4%
CCc1ccnc(NC(=O)c2cc(Cl)cc(Oc3cncnc3)c2)c1	2%
Cc1nc(NC(=O)c2cc(F)cc(Oc3cncnc3)c2)sc1F	1.5%
O=C(Nc1ccc(F)c(C(F)F)n1)c1cc(Cl)cc(Oc2cncnc2)c1	1.6%
O=C(Nc1nc(C(F)F)cs1)c1cc(F)cc(Oc2cncnc2)c1	1.7%
Cc1nc(NC(=O)c2cc(Cl)cc(Oc3cncnc3)c2)sc1F	1.4%
Cc1cc(NC(=O)c2cccc(Oc3cccnc3)c2)ccn1	27.8%
